# Measured values reported in PubChem BioAssay AID588753 (Vanderbilt Specialized Chemistry Center, 2011).
# The list shows a part of the results, in another mix than the full data. Calls of active or inactive are those of the source. No rule for the calls is given here.
# Test: PubChem AID 588753
# Settings: Ricerca radioligand binding panel, % inhibition, at 10 µM, stronger effect = higher value
smiles,measurement,setting,value
CC1(NC(=O)c2ccc(C#Cc3cccc(F)c3)cn2)COC1,inhibition,L-type Ca channel DHP site,14%
same,inhibition,NMDA phencyclidine site,2%
same,inhibition,adenosine A2a binding,1%
same,inhibition,adrenergic alpha1A binding,-13%
same,inhibition,,inactive: 11%
same,inhibition,dopamine transporter binding,31%
same,inhibition,hERG binding,18%
same,inhibition,leukotriene CysLT1 binding,8%
same,inhibition,norepinephrine transporter binding,20%
same,inhibition,purinergic P2XY binding,14%
same,inhibition,serotonin 5-HT2B binding,21%
same,inhibition,serotonin transporter binding,-3%
same,inhibition,sigma 1 binding,6%
